{"source": "paper PMC10257519", "about": "(European journal of medicinal chemistry, 2022)", "system": "acetyl–H3 and pan acetyl–lysine", "assay": "Hyperacetylation assay by Western blot", "type": "cell-based, human", "details": "5 and 10 μM", "data": [{"molecule": "O=C(CCCCCCC(=O)Nc1ccccc1)NO", "note": "[SAHA, vorinostat, reference compound]", "values": [{"measurement": "levels of acetylated H3 (Western blot)", "result": "increased levels"}, {"measurement": "levels of pan-acetyl-lysine (Western blot)", "result": "increased levels"}]}]}
